Data as given in patent US20180171027A1 (Celldex Therapeutics, Inc., priority 2015, published 2018).

Experiments:
SCCHN cell lines = test: Anti-proliferative activity on a panel of SCCHN cell lines (CellTiter-Glo); type: cell-based
Experimental: SCCHN cells were seeded in 96 well-plates at 3-5,000 cells/well in media containing reduced (1-3)% fetal bovine serum. […] Cells were treated with CellTiter-Glo® (Promega), and luminescence was measured in a BioTek plate reader. Normalized luminescence were plotted as a function of log-transformed drug concentration, and data were fit to a 4-parameter nonlinear regression algorithm using GraphPad Prism.

ERK pathway = test: Western blot, activation of ERK pathway; type: cell-based; details: drug-sensitive cells, absence of exogenous ligand
Experimental: (§1) Next, the interplay between ErbB activation and activation of ERK and AKT pathways was assessed by analyzing activation of ErbB, ERK, and AKT, respectively, in the absence of exogenous ligand (FIG. 4).

AKT pathway = test: Western blot, activation of AKT pathway; type: cell-based; details: drug-sensitive cells, absence of exogenous ligand
Experimental: as §1

cell surface ErbB3 = test: Cell surface ErbB3 after cetuximab treatment; type: cell-based; details: CAL27 and UNC7 SCCHN cell lines
[1] = system: CTG-0790 (patient-derived xenograft); test: Patient-derived xenograft tumor mouse model, tumor volume; type: in vivo; details: CTG-0790 PDX, 10 mg/kg (of each) intraperitoneally
Experimental: (§2) CTG-0790 cells were a primary patient-derived SCCHN tumor. Human FADU Head and Neck cells (ATCC No. HTB-43) were maintained at 37° C. in a 5% CO2 incubator in RPMI 1640 medium containing 4.5 g/L glucose, L-glutamine, sodium pyruvate and 10% fetal bovine serum. Xenografts were established by subcutaneously injecting 5×10^−6 cells per mouse (suspended in 50% matrigel) into the right flanks of 4- to 6-week-old athymic nu/nu mice. Tumors were allowed to grow up to 200 mm^3 before randomization for efficacy studies. […] Caliper measurements were used to calculate tumor volumes using the formula:
(§3) tumor volume=π÷6(length×width×width)
(§4) for tumors grown in mice. Antitumor effects are expressed as percent delta tumor growth inhibition (TGI), which was calculated as follows:
(§5) percent delta TGI=1−(dT÷dC)×100,
(§6) where dT=change in mean tumor volume in treatment group compared to the value at staging, and dC=change in mean tumor volume in control group compared to the value at staging.

[2] = system: FaDu (cell-line-derived xenograft); test: Cell-line-derived xenograft tumor mouse model, tumor volume; type: in vivo; details: FaDu CDX, 10 mg/kg (of each) intraperitoneally
Experimental: as §2, §3, §4, §5, §6

For “cetuximab: anti-EGFR monoclonal antibody [reference compound]”, the cellular proliferation (SCCHN cell lines; certain SCCHN cell lines (FIGS. 3A-3E)) was “capable of impairing cellular proliferation”, the cellular proliferation (SCCHN cell lines; other SCCHN cell lines (FIGS. 3F-3H) and a non-cancerous skin cell line) was “minimal impact” and the “activation of the ERK pathway” value (ERK pathway) was “inhibited activation”. For the same substance, the “activation of the AKT pathway” value (AKT pathway) was “not activation of the AKT pathway”, the “cell surface ErbB3” value (cell surface ErbB3) was “upregulation” and the “tumor growth (tumor volume)” value [1] was “delayed tumor growth”. The “tumor growth (tumor volume)” value [2] was “delayed tumor growth”.
